Results as given in patent publication US9174946B2, “Selective FAK inhibitors” (priority 2011, dated 2015).

Chains of the proteins cited; added tags and fusions are not shown.
UniProt Q05397, whole entry: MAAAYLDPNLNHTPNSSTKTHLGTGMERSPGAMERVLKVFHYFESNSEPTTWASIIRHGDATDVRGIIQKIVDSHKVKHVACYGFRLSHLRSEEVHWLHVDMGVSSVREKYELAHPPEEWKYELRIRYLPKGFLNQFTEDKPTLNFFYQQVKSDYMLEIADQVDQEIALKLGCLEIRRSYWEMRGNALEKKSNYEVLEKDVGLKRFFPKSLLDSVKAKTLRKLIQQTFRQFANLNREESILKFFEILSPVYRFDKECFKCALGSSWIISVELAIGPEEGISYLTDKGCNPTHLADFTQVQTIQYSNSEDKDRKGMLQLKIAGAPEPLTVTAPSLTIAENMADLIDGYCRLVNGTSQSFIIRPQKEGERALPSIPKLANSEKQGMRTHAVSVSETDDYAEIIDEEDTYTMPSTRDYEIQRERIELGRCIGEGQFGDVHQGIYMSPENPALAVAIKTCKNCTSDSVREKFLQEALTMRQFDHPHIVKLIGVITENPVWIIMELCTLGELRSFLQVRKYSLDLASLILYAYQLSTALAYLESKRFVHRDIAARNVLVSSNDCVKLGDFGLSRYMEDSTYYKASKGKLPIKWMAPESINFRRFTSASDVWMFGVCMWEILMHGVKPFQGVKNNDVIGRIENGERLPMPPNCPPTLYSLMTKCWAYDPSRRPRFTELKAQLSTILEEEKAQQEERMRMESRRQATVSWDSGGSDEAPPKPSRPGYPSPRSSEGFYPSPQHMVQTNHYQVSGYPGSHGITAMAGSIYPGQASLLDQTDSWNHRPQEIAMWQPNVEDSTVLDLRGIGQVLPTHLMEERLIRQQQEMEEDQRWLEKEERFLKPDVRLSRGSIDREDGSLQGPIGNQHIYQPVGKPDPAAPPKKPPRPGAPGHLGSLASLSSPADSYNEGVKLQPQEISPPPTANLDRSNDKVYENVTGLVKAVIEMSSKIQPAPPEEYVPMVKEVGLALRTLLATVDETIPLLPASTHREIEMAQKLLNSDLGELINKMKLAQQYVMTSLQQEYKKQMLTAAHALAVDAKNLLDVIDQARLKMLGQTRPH

Biological target: T1, Y397-FAK phosphorylation (Homo sapiens, UniProt Q05397)
T1 construct: endogenous in cells; host or cells: MDA-231-LNA cells
Assay type: cell-based
Conditions: MDA-231-LNA cells; relative to control compound at 2 μM

CCc1cc(C2CCN(C)CC2)ccc1Nc1ncc(C(F)(F)F)c(CCc2ccccc2CC(N)=O)n1 [Compound 9, 2-(2-(2-(2-((2-Ethyl-4-(1-methylpiperidin-4-yl)phenyl)amino)-5-(trifluoromethyl)pyrimidin-4yl)ethyl)phenyl)acetamide]
% response of control at 2 μM: 112%
